Test system: male Wister rats
Test: Formation of a gastric ulcer induced by a loxoprofen derivative (ulcer index, gastric mucosa PGE2)
Conditions: oral, tested form: sodium salt; for ulcer index (total area of gastric ulcers) / formation of an ulcer: rats fasted 18 hours, 8 hours after dosing, amount equivalent to 40 or 50 mg/kg of loxoprofen (FIGS. 1, 2); for amount of the gastric mucosa PGE2: rats, amount equivalent to 40 mg/kg of loxoprofen, ELISA (FIG. 3)

CC(C(=O)O)c1ccc(CC2CCCC2=O)cc1-c1ccc(O)cc1 (centres unmarked)
ulcer index (total area of gastric ulcers) / formation of an ulcer: hardly observed | amount of the gastric mucosa PGE2: more than that when loxoprofen was used

CC(C(=O)O)c1ccc(CC2CCCC2=O)cc1Br (centres unmarked)
amount of the gastric mucosa PGE2: more than that when loxoprofen was used

CC(C(=O)O)c1ccc(CC2CCCC2=O)cc1-c1ccc(N)cc1 (centres unmarked)
ulcer index (total area of gastric ulcers) / formation of an ulcer: hardly observed | amount of the gastric mucosa PGE2: more than that when loxoprofen was used

Reference: patent US8431614B2 (LTT Bio-Pharma Co., Ltd., priority 2009, dated 2013)
